From PMC8765275, “Self-Inhibitory Peptides Targeting the Neisseria gonorrhoeae MtrCDE Efflux Pump Increase Antibiotic Susceptibility” (Antimicrobial Agents and Chemotherapy, 2022) come the findings set out here.

What all share (assay type): cell-based, Neisseria gonorrhoeae
Details in all cases: antibiotic alone, EUCAST breakpoints

Assay [1] deals with N. gonorrhoeae strain FA1090 (standard MtrCDE expression). As to the kind of experiment: MIC, broth microdilution (CLSI), antibiotic alone, peptide alone or peptide cotreatment. The procedure:
(§1) Six peptides were tested against N. gonorrhoeae strains with various antimicrobial resistance phenotypes and with either standard MtrCDE expression (strain FA1090) or MtrCDE overexpression (strains WHO K, WHO P, and WHO X [15, 16]) (Table 2). […] Subsequent experiments were conducted with subinhibitory peptide concentrations (20 μg/ml for FA1090; 50 μg/ml for WHO K, WHO P, and WHO X).
(§2) Experiments were performed using a microdilution method in triplicate wells.
(§3) High-level resistance, resistance, intermediate resistance, and susceptibility phenotypes were determined per previously determined MIC values ([15]) using the interpretive criteria published by the Swedish Reference Group on Antibiotics (SGRA) ([25]). For cotreatment assays (peptide plus antibiotic), the antibiotic dilutions were made up in GC broth that contained the peptide at the appropriate concentration. The experiments were performed with peptide-only and antibiotic-only controls. Each well was inoculated with 10 μl of the appropriate N. gonorrhoeae strain at an optical density (absorbance at 600 nm) of 0.1 (∼1 × 10^6 CFU/ml). All experiments were performed with triplicate samples on at least three occasions.

For assay [2], the system named is N. gonorrhoeae strain WHO X (MtrCDE overexpression). The procedure: as §1, §2, §3
Assay [3] has as its system N. gonorrhoeae strain WHO P (MtrCDE overexpression). The procedure:
as §1, §2, §3

The structures appear in SMILES notation.

Take `CC[C@H]1OC(=O)[C@H](C)[C@@H](O[C@H]2C[C@@](C)(OC)[C@@H](O)[C@H](C)O2)[C@H](C)[C@@H](O[C@@H]2O[C@H](C)C[C@H](N(C)C)[C@H]2O)[C@](C)(O)C[C@@H](C)CN(C)[C@H](C)[C@@H](O)[C@]1(C)O` [AZM, azithromycin]: the “Antimicrobial resistance phenotype, AZM” value in assay [1] was “S (S ≤ 0.25)”; in assay [2], “I”; in assay [3], “R (R > 0.5)”.
Consider `CO/N=C(\C(=O)N[C@@H]1C(=O)N2C(C(=O)O)=C(CSc3nc(=O)c(=O)[nH]n3C)CS[C@H]12)c1csc(N)n1` [CRO, ceftriaxone], for which the “Antimicrobial resistance phenotype, CRO” value in assay [1] is given as “S (S ≤ 0.125)”; in assay [2], 2 (HLR); in assay [3] it was “S (S ≤ 0.125)”.
